Earlier results as cited in patent US20260126455A1, “Methods and Dosing Regimens for Preventing or Delaying Onset of Alzheimer's Disease and Other Forms of Dementia and Mild Cognitive Impairment” (priority 2020, published 2026).

System: amyloid
Conditions: cited from earlier work; for Clinical trial efficacy end points: Alzheimer's disease subjects, Solanezumab: Phase 3, mild Alzheimer's disease

Substance | Clinical trial efficacy end points | Removal of beta-amyloid plaques (people with Alzheimer's)
Aducanumab: another anti-amyloid antibody, designed by Biogen | efficacy endpoints were also not met | appeared to be able to remove those plaques
Bapineuzumab: anti-amyloid antibody | failed to achieve the desired end points | –
